Values of other authors in patent US20160169914A1, “KINETICS BIOMARKERS FOR NEURODEGENERATION” (KineMed, Inc., priority 2014, published 2016).

System: SOD1-G93A transgenic mouse
Conditions: SOD1-G93A TGN mouse; cited from earlier work

Compound: Nc1nc2ccc(OC(F)(F)F)cc2s1 [Riluzole]
- delay of disease onset and mortality: 20 to 30 days
